# Conditions: 10 mM phosphate buffer, 8 mg/ml, 37° C.
substance,measurement,value
8-arm-PEG20KDa-Quinidine α-methylbutanoate [quinidine conjugate],half-life for hydrolysis,46 h

# From US8183338B2, “Sterically hindered poly(ethylene glycol) alkanoic acids and derivatives thereof” (Nektar Therapeutics, priority 1999, dated 2012)
